Test system: supercoiled pBR322 plasmid DNA
Format: biochemical

Substance “N-phenyl 3-diazobenzamide tetrafluoroborate [Compound 9]” has an EC50 of 289 nM.
